For one molecule, GI50 and MGDH GI50 results are on record in ChEMBL document CHEMBL1128257, “Chemically stable N-methyl-4-(alkylthio)cyclophosphamide derivatives as prodrugs of 4-hydroxycyclophosphamide” (J Med Chem, 1995).

One experiment relates to SR. Kind of experiment: cytotoxicity against leukemia subpanel (SR). The settings on record: Homo sapiens.
In another experiment the test system is K562. Kind of experiment: cytotoxicity against leukemia subpanel (K562). The settings on record: Homo sapiens.
A further experiment relates to MOLT-4. Kind of experiment: cytotoxicity against leukemia subpanel (MOLT-4). The settings on record: Homo sapiens.
For the next experiment, the system named is CCRF-CEM. As to the kind of experiment: cytotoxicity against leukemia subpanel (CCRF-CEM). The settings on record: Homo sapiens.
Another experiment concerns RPMI-8226. Kind of experiment: cytotoxicity against leukemia subpanel (RPMI-8226). The settings on record: Homo sapiens.
A further experiment has as its system HL-60. As to the kind of experiment: cytotoxicity against leukemia subpanel (HL-60 (TB)). The note with it: Homo sapiens.
Another experiment concerns DMS-114. Kind of experiment: cytotoxicity against small cell lung cancer subpanel (DMS 114). The note with it: Homo sapiens.
A further experiment deals with DMS-273. As to the kind of experiment: cytotoxicity against small cell lung cancer subpanel (DMS 273). The note with it: Homo sapiens.
A short description of experiment [1]: MGDH represents the selectivity or relative sensitivity of the tumor cell panel to the drug.

Molecules are shown by their SMILES.

`CCCSC1CCOP(=O)(N(CCCl)CCCl)N1C` (centres undefined): the GI50 (as a rule, the concentration that inhibits growth by half) in the experiment with SR was 47.9 µM; in the experiment with K562 it was 49 µM; in the experiment on MOLT-4, > 100 µM; in the experiment with CCRF-CEM, > 100 µM; in the experiment with RPMI-8226 it was 79.4 µM; with HL-60, 17.8 µM. Besides, the values for the GI50 in the experiment on DMS-114 and in the experiment on DMS-273 were 43.7 µM and > 100 µM, respectively. The MGDH GI50 in [1] is 54.5.
